What is called inhibition is the share of the control response that was lost under treatment.

Protein sequences, listed by entry. Tags and fused reporters are not part of them. Residues count along the entry.
UniProt O60755, 1-299 limits assumed: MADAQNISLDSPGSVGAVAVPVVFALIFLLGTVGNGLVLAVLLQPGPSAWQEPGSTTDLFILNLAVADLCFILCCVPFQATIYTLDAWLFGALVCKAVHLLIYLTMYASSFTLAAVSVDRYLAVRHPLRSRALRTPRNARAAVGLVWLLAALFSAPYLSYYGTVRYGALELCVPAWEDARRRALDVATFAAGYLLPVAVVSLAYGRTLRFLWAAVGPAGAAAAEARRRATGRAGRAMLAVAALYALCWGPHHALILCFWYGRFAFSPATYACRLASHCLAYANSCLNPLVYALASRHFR

SMILES strings stand for the structures. Only a part is listed here, and it is no random draw. Calls of active or inactive are those of the source.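 The calls were made as follows: active = inhibition above the primary screen's cutoff, the mean inhibition of all screened compounds plus 3 SD (cut at about 13% in these data); inactive = the rest.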

In the assay the target is Galanin receptor type 3 (Homo sapiens) (UniProt O60755). The assay can be described thus: blockers of human galanin receptor 3 – cell-based, fluorescence, triplicate, confirmation (AID 652245).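 Also: 0% = forskolin plus galanin and 100% = forskolin alone with DMSO.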 The settings on record: HEK293 GalR3 CNG cAMP biosensor, membrane potential fluorescence; at 3 µM; stronger effect = higher value; challenged with forskolin and galanin at EC90; galR3 fused to GalR1 carboxy tail.
As for `O=[N+]([O-])c1cc([N+](=O)[O-])c(Nc2ccc(Cl)cc2)c([N+](=O)[O-])c1`, the inhibition was active: 77.1%.

For `CCN(CC)CCCOC(=O)C(O)(c1ccccc1)c1ccccc1`, the inhibition is inactive: 10.6%.

The values above are taken from PubChem BioAssay AID652245 (The Scripps Research Institute Molecular Screening Center, 2013).
